Laboratory results as given in patent publication US20090304869A1, “Peptides Having an Ace Inhibiting Effect” (priority 2005, published 2009).
pIC50: −log10 of the molar value.

By UniProt entry, the sequences of proteins in these tests, tags left out. Residues count along the entry.
UniProt P12821, 30-1306, species assumed: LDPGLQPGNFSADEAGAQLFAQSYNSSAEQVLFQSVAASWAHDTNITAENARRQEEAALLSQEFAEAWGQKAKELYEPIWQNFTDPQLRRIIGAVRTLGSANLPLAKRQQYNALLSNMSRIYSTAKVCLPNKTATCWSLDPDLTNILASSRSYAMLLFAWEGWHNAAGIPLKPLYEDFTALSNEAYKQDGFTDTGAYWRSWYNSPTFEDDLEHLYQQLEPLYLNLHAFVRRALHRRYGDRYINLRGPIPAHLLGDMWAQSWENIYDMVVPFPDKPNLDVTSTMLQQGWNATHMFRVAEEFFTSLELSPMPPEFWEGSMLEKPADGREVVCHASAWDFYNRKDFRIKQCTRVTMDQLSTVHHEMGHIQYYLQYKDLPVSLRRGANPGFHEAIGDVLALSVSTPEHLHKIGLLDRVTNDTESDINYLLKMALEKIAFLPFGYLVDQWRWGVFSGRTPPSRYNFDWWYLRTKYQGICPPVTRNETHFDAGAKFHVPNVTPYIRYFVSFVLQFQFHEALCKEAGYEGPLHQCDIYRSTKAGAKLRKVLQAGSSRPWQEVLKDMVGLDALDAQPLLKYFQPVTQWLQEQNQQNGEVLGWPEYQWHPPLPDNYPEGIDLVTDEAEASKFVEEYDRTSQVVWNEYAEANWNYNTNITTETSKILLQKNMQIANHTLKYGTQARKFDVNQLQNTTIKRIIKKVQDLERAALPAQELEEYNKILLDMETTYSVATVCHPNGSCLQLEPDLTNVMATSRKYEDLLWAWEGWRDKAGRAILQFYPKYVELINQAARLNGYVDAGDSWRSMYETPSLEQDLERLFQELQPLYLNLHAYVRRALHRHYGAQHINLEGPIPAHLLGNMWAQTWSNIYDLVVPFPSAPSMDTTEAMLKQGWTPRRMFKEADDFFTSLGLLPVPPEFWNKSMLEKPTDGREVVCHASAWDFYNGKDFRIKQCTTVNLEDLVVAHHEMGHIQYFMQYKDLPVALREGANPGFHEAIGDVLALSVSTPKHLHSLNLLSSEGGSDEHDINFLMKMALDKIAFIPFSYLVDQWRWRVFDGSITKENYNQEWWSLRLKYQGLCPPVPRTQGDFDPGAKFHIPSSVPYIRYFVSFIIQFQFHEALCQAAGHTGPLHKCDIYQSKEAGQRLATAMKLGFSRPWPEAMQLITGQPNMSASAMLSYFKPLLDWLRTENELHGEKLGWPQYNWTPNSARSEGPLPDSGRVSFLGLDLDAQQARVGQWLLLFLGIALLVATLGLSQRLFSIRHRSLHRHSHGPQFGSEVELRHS

Legend:
ACE = experiment: Modified Matsui ACE inhibition assay; format: biochemical
Protocol: This ACE inhibition activity was assayed according to the method of Matsui et al. (Matsui, T. et al. (1992) Biosci. Biotech. Biochem. 56: 517-518) with the modifications described below.
For each sample 75 μl 3 mM hippuryl histidine leucine (Hip-His-Leu, Sigma chemicals Co.; the chemical was dissolved in 250 mM Borate containing 200 mM NaCl, pH 8.3); 20 μl 0.1 U/ml ACE (obtained at Sigma) or H2O, and 25 μl sample or H2O were mixed (see Table 1). The mixtures were incubated at 37° C. and stopped after 30 min by adding 125 μl 0.5 M HCl. Subsequently, 225 μl bicine/NaOH solution (1 M NaOH:0.25 M bicine (4:6)) was added, followed by 25 μl 0.1 M TNBS (2,4,6-Trinitrobenzenesulfonic acid, Fluka, Switzerland; in 0.1 M Na2HPO4). After incubation for 20 min. at 37° C., 4, ml 4 mM Na2SO3 in 0.2 M NaH2PO4 was added and the absorbance at 416 nm was measured with UV/Vis spectrophotometer (Shimadzu UV-1601 with a CPS controller, Netherlands).
The amount of ACE inhibition (ACEI) activity was calculated as a percentage of inhibition compared with the conversion rate of ACE in the absence of an inhibitor:
wherein • C1=Absorbance without ACE inhibitory component (=max. ACE activity) [AU]. • C2=Absorbance without ACE inhibitory component and without ACE (background) [AU]. • S1=Absorbance in the presence of ACE and the ACE inhibitory component [AU]. • S2=Absorbance in the presence of the ACE inhibitory component, but without ACE [AU].

[1] = biological target: Angiotensin Converting Enzyme (ACE) (Homo sapiens, UniProt P12821); experiment: At-line ACE assay (HHL hydrolysis, flash-HPLC read-out); format: biochemical
Excerpt: MAP and ITP as novel ACE inhibiting peptides were identified in samples by using 2-dimensional-chromatographic-separation combined with an at-line ACE activity assay and mass spectrometry for identification. In the first analysis the peptide mixture is separated on an ODS3 liquid chromatography (LC) column. An activity profile is created from fractions collected from the analysis using a slightly modified Matsui assay. In the second analysis the fractions from the first column showing a high activity are further separated on a Biosuite LC column using a different gradient profile. The fractions collected from this second column are split into two parts, one part is used for the activity measurement while MS and MS-MS is applied on the other part for identification of the peptides present.
20 μl of a 10% (w/v) solution of PH in Milli-Q water was injected on a 150×2.1 Inertsil 5 ODS3 column with a particle size of 5 μm (Varian, Middelburg, the Netherlands). Mobile phase A consisted of a 0.1% trifluoroacetic acid (TFA) solution in Milli-Q water. Mobile phase B consisted of a 0.1% TFA solution in acetonitrile. The initial eluent composition was 100% A. The eluent was kept at 100% A for 5 minutes. Then a linear gradient was started in 10 minutes to 5% B, followed by a linear gradient in 10 minutes to 30% B. The column was flushed by raising the concentration of B to 70% in 5 minutes, and was kept at 70% B for another 5 minutes. After this the eluent was reduced to 100% A in 1 minute and equilibrated for 9 minutes. The total run time was 50 minutes. The effluent flow was 0.2 ml min^−1 and the column temperature was set at 60° C. A UV chromatogram was recorded at 215 nm. […] After the reaction the plate was cooled in melting ice and analysed on a flash-HPLC-column. […] Hippuric acid (H) and HHL were monitored at 280 nm. The peak heights of H and HHL were measured and the ACEI of each fraction was calculated according to the equation: […]
The degree of hydrolysis (DH) was calculated by expressing the peak height of H as a fraction of the sum of the peak heights of H and HHL.

SMILES: CC[C@H](C)[C@H](N)C(=O)N1CCC[C@H]1C(=O)N1CCC[C@H]1C(=O)O [IPP, reference compound]
- pIC50 (ACE): 5.70
- pIC50 [1]: 5.15
